The text below walks through data of patent publication US8877775B2, “Substituted 2-aza-bicyclo[2.2.2]octane-3-carboxylic acid (benzyl-cyano-methyl)-amides inhibitors of cathepsin C” (Boehringer Ingelheim International GmbH, priority 2013, dated 2014).

Sequences of proteins named here, by UniProt entry; tags and fusion partners are left off. Residues count along the entry.
UniProt P53634, 395-463: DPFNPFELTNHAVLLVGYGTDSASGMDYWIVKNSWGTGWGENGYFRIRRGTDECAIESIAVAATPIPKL
UniProt P53634, 25-134: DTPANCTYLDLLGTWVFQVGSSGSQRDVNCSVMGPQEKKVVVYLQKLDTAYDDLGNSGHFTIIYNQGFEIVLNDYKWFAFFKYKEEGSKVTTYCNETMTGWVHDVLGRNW
UniProt P53634, 231-394: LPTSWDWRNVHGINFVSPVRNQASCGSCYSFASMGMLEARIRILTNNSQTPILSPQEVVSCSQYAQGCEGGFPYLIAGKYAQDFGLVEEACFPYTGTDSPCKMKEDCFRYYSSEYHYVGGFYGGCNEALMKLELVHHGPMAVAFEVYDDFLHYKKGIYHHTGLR

For orientation: IC50 means the concentration needed to halve the response being measured.

This experiment deals with recombinant human DPPI (Cathepsin C) (Homo sapiens (Human), UniProt P53634). The experiment is described as follows: Inhibition of human DPPI (Cathepsin C). The class given is biochemical. The following applies: substrate Gly-Arg-AMC 50 μM, 30 min, room temperature. An excerpt:
Inhibition of Human DPPI (Cathepsin C)
Materials: Microtiterplates (Optiplate-384 F) were purchased from PerkinElmer (Prod. No. 6007270). The substrate Gly-Arg-AMC was from Biotrend (Prod.-No. 808756 Custom peptide). Bovine serum albumin (BSA; Prod. No. A3059) and Dithiothreitol (DTT; Prod. No D0632) were from Sigma. TagZyme buffer was from Riedel-de-Haen (Prod.-No. 04269), NaCl was from Merck (Prod.-No. 1.06404.1000) and morpholinoethane sulfonic acid (MES), was from Serva (Prod.-No. 29834). The DPP1 inhibitor Gly-Phe-DMK was purchased from MP Biomedicals (Prod.-No. 03DK00625). The recombinant human DPPI was purchased from Prozymex. All other materials were of highest grade commercially available.
The following buffers were used: MES buffer: 25 mM MES, 50 mM NaCl, 5 mM DTT, adjusted to pH 6.0, containing 0.1% BSA; TAGZyme Buffer: 20 mM NaH2PO4, 150 mM NaCl adjusted to pH 6.0 with HCl […]
Five uL test compound (final concentration 0.1 nM to 100 μM) in aqua bidest (containing 4% DMSO, final DMSO concentration 1%) were mixed with 10 μL of DPPI in MES buffer (final concentration 0.0125 ng/μL) and incubated for 10 min. […] The fluorescence in the wells was determined using a Molecular Devices SpectraMax M5 Fluorescence Reader (Ex 360 nm, Em 460 nm) or an Envision Fluorescence Reader (Ex 355 nm, Em 460 nm). […]

Structures are written as SMILES.

Turning to `CN1C(=O)Cc2cc(-c3ccc(C[C@@H](C#N)NC(=O)[C@H]4NC5CCC4CC5)cc3)ccc21` [Example 19], the IC50 was found to be 134 nM. With `CS(=O)(=O)c1cc(-c2ccc(C[C@@H](C#N)NC(=O)[C@H]3NC4CCC3CC4)c(F)c2)ccc1C#N` [Example 1, (2S)—N-[(1S)-1-cyano-2-[4-(4-cyano-3-methylsulfonyl-phenyl)-2-fluoro-phenyl]ethyl]-3-azabicyclo[2.2.2]octane-2-carboxamide], the IC50 turned out to be 30.1 nM.
